## Ab-14 light chain CDR variants: yeast mating affinities

Source: Engelhart et al. 2022 (doi:10.1038/s41597-022-01779-4), MIT Lincoln Laboratory and A-Alpha Bio; data file from the FLAb repository.

Binding partner: SARS-CoV-2 spike HR2 peptide, sequence PDVDLGDISGINAS.

The variants keep the heavy chain, the linker and the frameworks of Ab-14 (scFv order VH, the linker GGGGSGGGGSGGGGS, VL).
VH: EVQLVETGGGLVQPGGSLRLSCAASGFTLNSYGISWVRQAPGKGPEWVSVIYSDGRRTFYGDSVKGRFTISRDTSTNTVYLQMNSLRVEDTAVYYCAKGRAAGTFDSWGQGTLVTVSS
VL: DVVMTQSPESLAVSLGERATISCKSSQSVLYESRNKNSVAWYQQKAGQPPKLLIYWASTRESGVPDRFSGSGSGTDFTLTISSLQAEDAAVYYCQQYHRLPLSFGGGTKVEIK

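Variants in AAYL50 differ from the parent at up to three CDR positions; double and triple changes were sampled at random. Affinity was read by AlphaSeq, a pooled yeast mating assay with surface-displayed partners. After mating in shaken culture at 30 °C for 16 h, diploids were selected and their barcode pairs sequenced. Read counts were normalised to the haploid input and turned into Kd by a linear fit to BCL2-family pairs of known affinity, for each replicate. Mating was done three times.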

Each variant is given by its three light chain CDRs, as the data file delimits them; those of the parent are KSSQSVLYESRNKNSVA, WASTRES, QQYHRLPLS. The read-out is the apparent dissociation constant on a log10 scale (nM): the lower, the stronger. "nd" means that the variant was in the library but no mating with the target was seen in that replicate; the authors take this as a sign of poor binding, and no number exists. Background: pairings of library AAYL50 with three empty control strains gave a value in 18% of cases (median 4.19, 5th percentile 2.99). Values in that range, when seen in few replicates, are hard to tell from nonspecific mating. For each scFv, signals with the empty controls are counted beside the result.

With LSSQSHLYESRNKNSVA | WASTIES | QQYHRLPLS the result was 5.52, 5.38, nd (controls 4 of 9).
With KSSQSVLYESRNKNSVA | WADTRES | QQYQRLPLR the result was 2.74, 2.83, 2.68 (controls 3 of 9).
With KSFQSVLYESRNKNSVA | WASTRES | QQYHRCLLS the result was 1.60, 1.59, 1.49 (controls 1 of 9).
With KSSKSVLYEWRNKNSVA | AASTRES | QQYHRLPLS the result was 3.79, 5.38, nd (controls 4 of 9).
With KSSQSVLYESRNKNSAA | WASTRES | QQYHRVPLY the result was nd, nd, nd (controls 0 of 9).
With KSSQTMLYESRNKNSVA | RASTRES | QQYHRLPLS the result was 0.19, 0.76, 0.34 (controls 1 of 9).
With KSSQSVLYESRNKNSVA | WANTRES | VQYHRLPLE the result was 4.78, nd, nd (controls 2 of 9).
With KSSQSLLYESRNKNSVA | WQSTRES | QQYHRLPSS the result was nd, nd, nd (controls 1 of 9).
With KSSQIVLYESRWKNSVA | WASTRES | QQYHRLPLS the result was nd, nd, nd (controls 1 of 9).
With KSSQSVLYESRNKNSVA | WASAHES | QQYHYLPLS the result was nd, nd, nd (controls 3 of 9).
With KSSQSVLYESRNKNSLA | WASTRES | QQRHRLPLS the result was 2.90, 3.65, 3.51 (controls 4 of 9).
With KSSQSVLYYSPNKNSVA | WASTRES | QQYHRLPHS the result was 1.42, 1.53, 1.84 (controls 0 of 9).
With KSSQSGLYESRNKNSVA | WASTLES | QQYHRLPLS the result was nd, 1.78, nd (controls 0 of 9).
With KSSQSVLYEKRNKNSVA | WLSTNES | QQYHRLPLS the result was 2.76, nd, nd (controls 0 of 9).
With KSSQSVLYESRNKNSVA | WASTRES | RQYWRLPLF the result was nd, nd, nd (controls 1 of 9).
With KSSEAVLYESRNKNSVA | WASTRES | FQYHRLPLS the result was nd, nd, nd (controls 3 of 9).
With KSSQVVLYESRPKNSVA | WASTRES | QQYHGLPLS the result was nd, 3.68, nd (controls 1 of 9).
With KSSQSVDYESKNKNSVA | WASTREM | QQYHRLPLS the result was 0.43, 0.63, 0.66 (controls 0 of 9).
With KSSSQVLYESRNKNSVA | WASTRES | QQYHPLPLS the result was nd, nd, nd (controls 1 of 9).
With KSSQSVLYESRNKNSVV | FASTRES | QQYHRLPLS the result was nd, 4.16, nd (controls 1 of 9).
With KSSQSVLYESRNKNSAE | WASTRCS | QQYHRLPLS the result was nd, 3.07, nd (controls 1 of 9).
With SSSQSFLYESRNKNSVA | WASTRES | QQYHRCPLS the result was 5.81, nd, nd (controls 0 of 9).
With KSSQSVLYESRNKNSVA | WASTHES | QQYHRLPLS the result was nd, nd, nd (controls 0 of 9).
With KSSQSVLYWSRNKNSVA | WADTRES | QQYHNLPLS the result was 2.04, 2.25, 2.22 (controls 1 of 9).
With KSSQPVLYESRNKNSVD | WASTRES | QQYNRLPLS the result was nd, nd, nd (controls 2 of 9).
With KSSQSVHYEIRNKNSVA | WASTRES | QQYHRNPLS the result was nd, nd, nd (controls 0 of 9).
With KSSQEVLYESRNKNSVA | WASTRAS | QQYHRVPLS the result was 4.06, 5.57, 5.00 (controls 5 of 9).
With KESQSVLYESRNKNSVA | NESTRES | QQYHRLPLS the result was -0.35, 0.00, -0.24 (controls 2 of 9).
With KSSQSSLYESRNKNSVT | WASTRES | QMYHRLPLS the result was nd, nd, nd (controls 0 of 9).
With KSSQSVLTESRNKNSVA | WASTREI | QQYHRLPLM the result was 0.79, 1.01, 1.00 (controls 0 of 9).
With KSSQSVLYESRNKNSVA | SASTRES | QQYHRLPLS the result was nd, nd, 5.72 (controls 3 of 9).
With KSSQSVEYESRNPNSVA | WASTRES | QQYHILPLS the result was 1.70, 1.72, 2.05 (controls 3 of 9).
With KSPQSVLEESRNKNSVA | WASTRES | QQYHRLPLS the result was 0.41, 0.67, 0.34 (controls 0 of 9).

Picked from the list: the 2 lowest averages where every replicate gave a value.

CDR-L1	CDR-L2	CDR-L3	log10 Kd, replicates	signal with controls
KESQSVLYESRNKNSVA	NESTRES	QQYHRLPLS	-0.35, 0.00, -0.24	2/9
KSSQTMLYESRNKNSVA	RASTRES	QQYHRLPLS	0.19, 0.76, 0.34	1/9